Apparent affinities of Ab-14 variants for a coronavirus HR2 peptide

From the AlphaSeq antibody data of Engelhart et al. 2022 (doi:10.1038/s41597-022-01779-4), copy in the FLAb collection.

Binding partner: SARS-CoV-2 spike HR2 peptide, sequence PDVDLGDISGINAS.

The variants keep the heavy chain, the linker and the frameworks of Ab-14 (scFv order VH, three GGGGS repeats, VL).
VH: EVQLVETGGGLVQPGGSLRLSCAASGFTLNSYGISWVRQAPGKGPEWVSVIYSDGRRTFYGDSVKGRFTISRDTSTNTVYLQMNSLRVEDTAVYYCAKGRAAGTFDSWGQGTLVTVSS
VL: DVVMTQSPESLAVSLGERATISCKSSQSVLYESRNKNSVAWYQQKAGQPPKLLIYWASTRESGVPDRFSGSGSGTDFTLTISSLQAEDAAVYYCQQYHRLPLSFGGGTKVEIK

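The parent was found by panning a naive human phage display library on the peptide. In library AAYL50, one, two or three CDR residues were substituted; doubles and triples were drawn at random. In AlphaSeq, yeast of one mating type display the scFv and yeast of the other type display the target. Mating (16 h, 30 °C) was followed by selection of diploids and sequencing of their barcodes. Scores were corrected for input abundance and mapped to Kd with protein pairs of known affinity run in the same pool. Each pool was mated in three replicate cultures.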

The parent's light chain CDRs are KSSQSVLYESRNKNSVA, WASTRES, QQYHRLPLS; each variant's own CDRs replace them letter for letter. Values are apparent Kd, the geometric mean of the replicates that gave a signal; lower means stronger binding. "not detected" marks a missing value. The strain was present, yet no cells mated with the target were sequenced in any replicate, which points to weak or no binding. Three control strains display no target. For library AAYL50, 18% of the pairings with them gave a signal, with a median of 15 µM and one signal in twenty below 970 nM, so weak values seen in few replicates may be background. Parent in this assay: reference entry 4.4 nM, copy in this library 48 nM.

CDR-L1,CDR-L2,CDR-L3,Kd,replicates with signal
KSSQSVLYESRNKNSVA,FASTRES,QLYHRLPLS,400 nM,3/3
KSSQSVKYESRNKNSVA,WASTRES,QSYHRLPNS,not detected,0/3
KSSQSVGYASRNKNSVA,WASTRES,QQYHRLPLS,16 nM,3/3
KSSQSDLPESRNKNSVA,WASTRES,QQSHRLPLS,not detected,0/3
KSSQSVLYESRNKNSVA,GATTRET,QQYHRLPLS,850 pM,3/3
KSSCSVLYESRNKNSVA,WASTRES,QQYHRLPLF,18 nM,3/3
KSSQSVLNESRNKNPVA,WASTRES,QQYHRLPPS,1.3 µM,1/3
KSSTSVLYESRNKNSVA,WVSTRES,QQYHRLPLS,7.4 µM,2/3
KSSQSVLYESRNKNAIA,WASTRES,QQYHRLILS,27 nM,3/3
KSSWSVLYQSRNKNSVA,WASTRES,QQYHRLPIS,83 nM,3/3
KSSQSVEYESTNKNSVA,WASTRES,QQDHRLPLS,1.7 nM,3/3
KSSQSVLYESRNTNSVA,VASTRES,QQYHRLPIS,2.2 µM,3/3
KSSQSVLYESRNKNSVA,WAMTRES,QQYHPRPLS,30 µM,2/3
KSSQSVVYEWRNKNSVA,WASTRES,QQYHRLPLS,380 nM,3/3
KSSQSVQYEMRNDNSVA,WASTRES,QQYHRLPLS,7.7 µM,3/3
KSSQSVLMESRNKNSNA,WASTRES,QQYHKLPLS,4.8 µM,1/3
KSSQSVLYNSRNKNSVA,WASTRES,PQYHRLPLS,1.8 µM,1/3
KNSQSVLYESRNKNSVA,WASTRES,QQYHRLTLS,not detected,0/3
KSSQSVLYYSRNKNSAA,WASTRES,QQYHRLPLS,not detected,0/3
KLSQSVLYESRNKNSVA,WASKRES,QQYHRLPPS,7.9 nM,3/3
KYSQTVLYESRNKNSVC,WASTRES,QQYHRLPLS,4.5 µM,2/3
KSSESVLYQSRNKNSVA,WASTRES,QAYHRLPLS,44 nM,3/3
KSSQSVLYESYNKTSVA,WASTRES,QQYHRHPLS,not detected,0/3
KSQQSVLYESRNKNEVA,WASTRES,QSYHRLPLS,59 nM,3/3
KSSQSVLYESRNKNGVA,WASTRES,AQYHSLPLS,not detected,0/3
KSSQSVAYESRNKNSVA,WASERES,VQYHRLPLS,250 µM,2/3
KSSQLVLYESRIKNSNA,WASTRES,QQYHRLPLS,not detected,0/3
QSSLSVFYESRNKNSVA,WASTRES,QQYHRLPLS,18 nM,3/3
KSSQGVLYEGRNKNSVA,WASTRES,QQYHRLPLP,10 nM,3/3
KSSQSVLYESRNKNSCA,WDSTRLS,QQYHRLPLS,6.2 µM,2/3
NSSQSMLYESRNKNSVA,WADTRES,QQYHRLPLS,12 nM,3/3
KRSQSVLYGSRNKNSVA,WASTRES,QQYHRLPNS,140 nM,2/3
KHSQSVCYESRNKNSVA,WASTRES,QLYHRLPLS,62 µM,1/3
KSSQSVLYESRNKNSVA,WASARKS,QQYHELPLS,16 µM,1/3
KVSQSVLYESRNKNSVA,WASTRES,QQYHRIPES,not detected,0/3
KSSQSVHYESRNKNSVA,AASTPES,QQYHRLPLS,3.5 nM,3/3
KSSQSVLYNSRNKNSVA,RASTRES,QQYHALPLS,89 nM,3/3
KSSQSVLYESRNKNSVA,AAHTRES,QMYHRLPLS,9.3 nM,3/3
KSSQSVLYESRNKNSVA,YASTREL,QQYHRLPLS,3.5 nM,3/3
KSLQSVLYESRNKNSWA,WASTRES,CQYHRLPLS,not detected,0/3
KSSQSVCTESRNKNSVA,WASTRES,QQYHRLPLS,9.9 nM,3/3
KSSQCVFYESRNKNSVA,WASTRSS,QQYHRLPLS,not detected,0/3
KSSQSVLYESINKNSVA,WASSRES,QQYHRYPLS,50 nM,3/3
KSSQSVLYSSRNKNSVA,WASTRRS,SQYHRLPLS,not detected,0/3
KISQSVLYESRNKNSVA,WASTRES,QMYHRLPVS,not detected,0/3
KSSQSVLYENRNKNSVA,WASTRES,QQYNRLFLS,350 nM,3/3
KSSISVLYESWNKMSVA,WASTRES,QQYHRLPLS,110 nM,3/3
KSSPSVLYESRNKNSVA,WASMRES,SQYHRLPLS,140 nM,3/3
KSSQSDLYESRNKNSVA,WASTRES,QQYDRPPLS,not detected,0/3
KSPQSVLYESRNKNSVA,WASKRES,QQYHKLPLS,14 nM,3/3
KSSQSVLYESRNKNSVA,WFSTRWS,EQYHRLPLS,2.6 µM,2/3
KSSQSVLKESRNKNSVA,WASTREQ,QQYHRAPLS,33 nM,3/3
KSSSSVLYESRNKNSVS,WASTRES,QQYHRLPLS,800 nM,3/3
KSDQSRLYESRNKNSVA,WASTRES,QQYHRLPQS,15 µM,2/3
KSMQSVLYESRNKNSVM,WASTRES,EQYHRLPLS,79 µM,1/3
KSSQSKLYEIRNKNSVA,WASTRES,QQYHVLPLS,16 nM,3/3
KSLQSVLYESRNKNSVA,NASTRES,QIYHRLPLS,15 nM,3/3
KSSQSVLYESANKNSVA,WASTVEK,QQYHRLPLS,9.5 nM,3/3
KSSQSVLYESRNKNSNA,WASWRES,QQYHRPPLS,not detected,0/3
KSSQSVLYESRNKNSTA,WASARES,QQYHFLPLS,not detected,0/3
KSPQSVLDESRNKNSVM,WASTRES,QQYHRLPLS,not detected,0/3
ISSQSVLYESREKNSVA,WASTRHS,QQYHRLPLS,54 nM,3/3
KSSQSVLYESRNKNSVA,WPSTRES,QQYHRLKGS,23 µM,1/3
KSSQSVLYESRHKNSVA,WASTREL,QQYMRLPLS,240 nM,3/3
KSSQSVLYESRNKNSVA,WASTLES,QFIHRLPLS,7.7 µM,1/3
KSSQSVLYESRNKNSVA,KASKRES,QQYHRLQLS,not detected,0/3
KSSQSVLYESRNKFSVA,WASTRES,QQYHRLPRS,150 nM,3/3
KSSQSVCYESRNKNSVA,WASTRDS,QQYHQLPLS,12 nM,3/3
KSSQSLKYESRNKNSVA,WASTRES,QQYHRMPLS,10 nM,3/3

The last 10 entries again:

CDR-L1,CDR-L2,CDR-L3,Kd,replicates with signal
KSSQSVLYESRNKNSTA,WASARES,QQYHFLPLS,not detected,0/3
KSPQSVLDESRNKNSVM,WASTRES,QQYHRLPLS,not detected,0/3
ISSQSVLYESREKNSVA,WASTRHS,QQYHRLPLS,54 nM,3/3
KSSQSVLYESRNKNSVA,WPSTRES,QQYHRLKGS,23 µM,1/3
KSSQSVLYESRHKNSVA,WASTREL,QQYMRLPLS,240 nM,3/3
KSSQSVLYESRNKNSVA,WASTLES,QFIHRLPLS,7.7 µM,1/3
KSSQSVLYESRNKNSVA,KASKRES,QQYHRLQLS,not detected,0/3
KSSQSVLYESRNKFSVA,WASTRES,QQYHRLPRS,150 nM,3/3
KSSQSVCYESRNKNSVA,WASTRDS,QQYHQLPLS,12 nM,3/3
KSSQSLKYESRNKNSVA,WASTRES,QQYHRMPLS,10 nM,3/3